{"source": "patent US20050227355A1", "about": "“Serum-free cell culture media” (priority 1996, published 2005)", "key": {"Hybridoma 1E6": {"test_system": "Hybridoma 1E6", "test": "Soluble organic acids as lipid precursors, Hybridoma 1E6 (Example 9)", "format": "cell-based, Mouse"}, "[1]": {"test_system": "Vero, CHO-K1 and 1E6 hybridoma cells", "test": "Soluble organic acids as lipid precursors, overall conclusion (Example 9)", "format": "cell-based"}, "Vero cells": {"test_system": "Vero cells", "test": "Soluble organic acids as lipid precursors, Vero cells (Example 9)", "format": "cell-based, Monkey", "conditions": "DME/MCDB 110 basal medium"}}}
{"smiles": "CCCCCC(=O)O", "note": "[Caproic acid]", "values": [{"measurement": "cell growth results (ranking of acids)", "setting": "Hybridoma 1E6", "value": "best results"}, {"measurement": "effective / optimum concentration of the most important organic acids", "setting": "[1]", "value": "around 0.2 mM"}, {"measurement": "cell growth results (ranking of acids)", "setting": "Vero cells", "value": "then caproic acid"}]}
